The text below walks through data of PMC9386376, “Discovery of spirooxindole-derived small-molecule compounds as novel HDAC/MDM2 dual inhibitors and investigation of their anticancer activity” (Frontiers in Oncology, 2022).

One experiment addresses T1, HDAC8 (Homo sapiens, UniProt Q9BY41).
T1 sequence (Q9BY41 1-377): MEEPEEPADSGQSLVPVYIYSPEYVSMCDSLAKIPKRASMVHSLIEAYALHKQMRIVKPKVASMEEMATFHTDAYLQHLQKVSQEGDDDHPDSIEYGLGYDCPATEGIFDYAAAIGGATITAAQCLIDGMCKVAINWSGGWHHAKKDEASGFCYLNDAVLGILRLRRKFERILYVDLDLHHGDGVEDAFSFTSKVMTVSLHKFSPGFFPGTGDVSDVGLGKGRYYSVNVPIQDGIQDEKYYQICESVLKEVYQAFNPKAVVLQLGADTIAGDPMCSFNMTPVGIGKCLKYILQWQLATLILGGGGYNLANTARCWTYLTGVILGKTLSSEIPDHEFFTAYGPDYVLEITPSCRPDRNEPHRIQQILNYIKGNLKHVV
The experiment is described as follows: HDAC isoform selectivity, HDAC8. The class given is biochemical.

The target in another experiment is T2, HDAC10 (Homo sapiens, UniProt Q969S8).
T2 sequence (Q969S8 1-669): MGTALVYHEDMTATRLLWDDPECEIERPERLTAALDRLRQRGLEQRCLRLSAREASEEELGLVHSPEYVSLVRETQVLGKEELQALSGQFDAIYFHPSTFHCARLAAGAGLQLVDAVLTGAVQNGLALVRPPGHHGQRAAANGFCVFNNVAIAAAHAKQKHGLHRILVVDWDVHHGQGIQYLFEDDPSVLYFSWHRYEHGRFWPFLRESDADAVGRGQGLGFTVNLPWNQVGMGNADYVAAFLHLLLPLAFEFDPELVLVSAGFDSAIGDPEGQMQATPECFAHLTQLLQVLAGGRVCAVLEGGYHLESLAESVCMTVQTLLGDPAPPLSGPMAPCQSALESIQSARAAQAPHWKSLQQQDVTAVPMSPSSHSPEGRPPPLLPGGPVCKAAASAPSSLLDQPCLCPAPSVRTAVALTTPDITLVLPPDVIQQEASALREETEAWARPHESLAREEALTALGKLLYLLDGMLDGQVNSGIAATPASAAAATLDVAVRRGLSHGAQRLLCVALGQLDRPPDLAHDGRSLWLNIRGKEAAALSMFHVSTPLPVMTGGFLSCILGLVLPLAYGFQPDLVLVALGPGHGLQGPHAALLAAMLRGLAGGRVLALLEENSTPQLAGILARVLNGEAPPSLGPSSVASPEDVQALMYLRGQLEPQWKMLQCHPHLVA
The experiment is described as follows: HDAC isoform selectivity, HDAC10. The class given is biochemical.

For `O=C(CCCCCCC(=O)Nc1ccccc1)NO` [SAHA, vorinostat, reference compound], the IC50 against HDAC8 came to 0.183 ± 0.027 µM; at HDAC10 it was 0.379 ± 0.022 µM.
